These compounds were tested against CDK-2 (Homo sapiens, UniProt P24941) (assay: Fluorescence polarization displacement assay (inhibitory effectiveness toward CDK-2)). Details: IC50, inhibitory effectiveness toward CDK-2.
COC(=O)[C@H](Cc1ccc(O)cc1)NC(=O)c1cc(C(=O)O)c2cc(/C=C/c3ccc(C(F)(F)F)cc3)ccc2n1 [Compound 5] was tested, and the IC50 was < 1000 nM.
With COC[C@H](Cc1ccc(O)cc1)NC(=O)c1cc(NS(=O)(=O)C(C)(C)C)c2cc(-c3cccc(Cn4cccn4)c3)ccc2n1 [Compound 29] the IC50 was < 1000 nM.
In the case of COC[C@H](Cc1ccc(O)cc1)NC(=O)c1cc(C(=O)O)c2cc(COc3cccc(OC(F)(F)F)c3)ccc2n1 [Compound 117], the IC50 is reported as 1000 to 40000 nM.
For CNCc1cccc(-c2ccc3nc(C(=O)N[C@H](COC)Cc4ccc(O)cc4)cc(C(=O)O)c3c2)c1 [Compound 195], the IC50 was > 40000 nM.
In the case of COC[C@H](Cc1ccc(O)cc1)NC(=O)c1cc(C(=O)O)c2cc(C#CCON)ccc2n1 [Compound 222], the IC50 is reported as > 40000 nM.
CCCCS(=O)(=O)Nc1cc(C(=O)N[C@H](COC)Cc2ccc(O)cc2)nc2ccc(-c3cccc(C(F)(F)F)c3)cc12 [Compound 61] was tested, and the IC50 was < 1000 nM.
In the case of NC[C@H](Cc1ccc(O)cc1)NC(=O)c1cc(C(=O)O)c2cc(/C=C/c3ccc(Cl)cc3)ccc2n1 [Compound 18], the IC50 is reported as < 1000 nM.
With COC(=O)[C@H](Cc1ccc(O)cc1)NC(=O)c1cc(C(=O)O)c2cc(-c3ccc(C(F)(F)F)cc3)ccc2n1 [Compound 57] the IC50 was < 1000 nM.
For COC[C@H](Cc1ccc(O)cc1)NC(=O)c1cc(C(=O)O)c2cc(OCc3cccc(C(F)(F)F)c3)ccc2n1 [Compound 46], the IC50 was < 1000 nM.
COC[C@H](Cc1ccc(O)cc1)NC(=O)c1cc(C(=O)O)c2cc(-c3cccc(Cn4cccn4)c3)ccc2n1 [Compound 23] was tested, and the IC50 was < 1000 nM.
COC[C@H](Cc1ccc(O)cc1)NC(=O)c1cc(C(=O)O)c2cc(C#CCCn3ccnc3)ccc2n1 [Compound 223] was tested, and the IC50 was > 40000 nM.
With COC(=O)C(Cc1ccc(O)cc1)NC(=O)c1cc(C(=O)N(C)C)c2cc(-c3cccs3)ccc2n1 (stereo not drawn) [Compound 1] the IC50 was < 1000 nM.
In the case of COC[C@H](Cc1ccc(O)cc1)NC(=O)c1cc(-n2ccnc2)c2cc(-c3cccc(Cn4ccnc4)c3)ccc2n1 [Compound 212], the IC50 is reported as > 40000 nM.
With COC(=O)C(NC(=O)c1cc(C(=O)O)c2cc(-c3cccc(C(F)(F)F)c3)ccc2n1)[C@@H](C)c1ccccc1 (stereo partly drawn) [Compound 70] the IC50 was < 1000 nM.
In the case of COC[C@H](Cc1ccc(O)cc1)NC(=O)c1cc(C(=O)O)c2cc(-c3cccc(CN(C)CCN(C)C)c3)ccc2n1 [Compound 194], the IC50 is reported as > 40000 nM.
In the case of COC(=O)[C@H](Cc1ccc(O)cc1)NC(=O)c1cc(C(=O)O)c2cc(-c3ccc(O)cc3)ccc2n1 [Compound 134], the IC50 is reported as 1000 to 40000 nM.
COC[C@H](Cc1ccc(O)cc1)NC(=O)c1cc(NS(=O)(=O)Cc2ccccc2)c2cc(-c3cccc(C(F)(F)F)c3)ccc2n1 [Compound 53] was tested, and the IC50 was < 1000 nM.
For COC[C@H](Cc1ccc(O)cc1)NC(=O)c1cc(C(=O)OC[C@@H](N)C(C)C)c2cc(/C=C/c3ccc(Cl)cc3)ccc2n1 [Compound 216], the IC50 was > 40000 nM.
O=C(N[C@@H](Cc1ccc(O)cc1)Cn1ccnc1)c1cc(C(=O)O)c2cc(/C=C/c3ccc(Cl)cc3)ccc2n1 [Compound 118] was tested, and the IC50 was 1000 to 40000 nM.
In the case of COC[C@H](Cc1ccc(O)cc1)NC(=O)c1cc(C(=O)O)c2cc(CSc3cccs3)ccc2n1 [Compound 150], the IC50 is reported as 1000 to 40000 nM.
COC[C@H](Cc1ccc(O)cc1)NC(=O)c1cc(C(=O)O)c2cc(OCc3ccc(Cl)cc3)ccc2n1 [Compound 43] was tested, and the IC50 was < 1000 nM.
For COC[C@H](Cc1ccc(O)cc1)NC(=O)c1cc(NS(C)(=O)=O)c2cc(-c3cccc(C(F)(F)F)c3)ccc2n1 [Compound 96], the IC50 was 1000 to 40000 nM.
In the case of COC[C@H](Cc1ccc(O)cc1)NC(=O)c1cc(C(=O)OC)c2cc(-c3cccc(C(F)(F)F)c3)ccc2n1 [Compound 144], the IC50 is reported as 1000 to 40000 nM.
With COC(=O)[C@H](Cc1ccccc1F)NC(=O)c1cc(C(=O)O)c2cc(-c3cccc(C(F)(F)F)c3)ccc2n1 [Compound 167] the IC50 was > 40000 nM.
With Cn1nnnc1[C@H](Cc1ccc(O)cc1)NC(=O)c1cc(C(=O)O)c2cc(-c3cccc(C(F)(F)F)c3)ccc2n1 [Compound 102] the IC50 was 1000 to 40000 nM.
In the case of Cn1nnc([C@H](Cc2ccc(O)cc2)NC(=O)c2cc(C(=O)O)c3cc(-c4cccc(C(F)(F)F)c4)ccc3n2)n1 [Compound 17], the IC50 is reported as < 1000 nM.
In the case of COC[C@H](Cc1ccc(O)cc1)NC(=O)c1cc(N(C)S(=O)(=O)C(C)(C)C)c2cc(-c3cccc(C(F)(F)F)c3)ccc2n1 [Compound 178], the IC50 is reported as > 40000 nM.
